Earlier results on one substance are cited in patent publication US6576662B2, “Compounds having anticancer activity : process for their preparation and pharmaceutical compositions containing them” (Dr. Reddy's Laboratories Limited, priority 2000, dated 2003).

The series deals with H9 cell. The note with it: cited from earlier work.

On to “dehydroandrographolide succinic acid monoester [DASM]”, for which the “concentrations nontoxic to the H9 cell” value is 50 to 200 µg/mL.
